The record followed here is US9884844B2 (priority 2012, dated 2018).

Amino acid sequences for entries named in this document (tags omitted).
UniProt P35372, whole entry: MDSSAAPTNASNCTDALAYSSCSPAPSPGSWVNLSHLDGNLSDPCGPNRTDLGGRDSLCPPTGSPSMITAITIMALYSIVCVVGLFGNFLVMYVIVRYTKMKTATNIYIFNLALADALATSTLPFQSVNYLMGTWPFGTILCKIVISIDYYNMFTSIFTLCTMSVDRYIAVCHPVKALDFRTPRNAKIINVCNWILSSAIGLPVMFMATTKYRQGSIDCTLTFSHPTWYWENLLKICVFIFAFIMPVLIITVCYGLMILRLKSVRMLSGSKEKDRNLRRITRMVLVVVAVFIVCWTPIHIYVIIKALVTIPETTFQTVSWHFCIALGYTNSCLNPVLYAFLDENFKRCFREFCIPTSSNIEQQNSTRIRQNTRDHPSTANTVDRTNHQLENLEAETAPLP

This experiment addresses μ-opioid receptor (Homo sapiens, UniProt P35372).
Consider `CNC(=O)C[C@@]1(O)C(=O)N(C2CCN([C@H]3Cc4cccc5cccc3c45)CC2)c2ccccc21`, for which the EC50 (as a rule, the concentration needed to bring the measured effect to its halfway point) is 0.1 to 1 µM.

For `CNC(=O)CC1(O)C(=O)N(C2CCN(C3c4cccc5cccc(c45)C3C)CC2)c2ccccc21` (centres unmarked), the concentration for a half-maximal effect (EC50) is less than 0.1 µM.

Compound `COCCC1(C)C(=O)N(C2CCN([C@@H]3Cc4cccc5cccc3c45)CC2)c2ccccc21` (some centres unmarked) showed an EC50 of less than 0.1 µM.

On to `CNC(=O)CC1(O)C(=O)N(C2CCN(C3(C)CCc4ccccc43)CC2)c2ccccc21` (centres unmarked), for which the EC50 was less than 0.1 µM.

`CNC(=O)C[C@]1(O)C(=O)N(C2CCN([C@H]3Cc4cccc5cccc3c45)CC2)c2ccccc21` returned a concentration for a half-maximal effect (EC50) of 0.1 to 1 µM.

For `CNC(=O)CC1C(=O)N(C2CCN(C3(C)CCCc4ccccc43)CC2)c2ccccc21` (centres unmarked), the EC50 was less than 0.1 µM.

In turn, `CNC(=O)C[C@@]1(C)C(=O)N(C2CCN([C@H]3Cc4cccc5cccc3c45)CC2)c2ccccc21` yielded a half-maximal effective concentration (EC50) of 0.1 to 1 µM.

Consider `CNC(=O)CC1C(=O)N(C2CCN(CCC(Oc3cc(OC)ccc3Cl)C(C)C)CC2)c2ccccc21` (centres unmarked), for which the concentration for a half-maximal effect (EC50) is less than 0.1 µM.

For the compound `O=C1NCC2(N1)C(=O)N(C1CCN(C3Cc4cccc5cccc3c45)CC1)c1ccccc12` (centres unmarked), the EC50 was less than 0.1 µM.

Compound `CNC(=O)CCC1(O)C(=O)N(C2CCN(C3Cc4cccc5cccc3c45)CC2)c2ccccc21` (centres unmarked) showed an EC50 of less than 0.1 µM.

As for `CNC(=O)CC1C(=O)N(C2CCN(C3CC[C@H]4CCCc5cccc3c54)CC2)c2ccccc21` (some centres unmarked), the concentration for a half-maximal effect (EC50) was less than 0.1 µM.

The compound `CNC(=O)CCC1(C)C(=O)N(C2CCN(C3Cc4cccc5cccc3c45)CC2)c2ccccc21` (centres unmarked) showed an EC50 of less than 0.1 µM.

Take `CNC(=O)CC1(C)C(=O)N(C2CCN(C3(C)Cc4cccc5cccc(c45)C3)CC2)c2ccccc21` (centres unmarked): the 50% effective concentration (EC50) is less than 0.1 µM.

`CNC(=O)CC1(C)C(=O)N(C2CCN(C3(C)CCCc4ccccc43)CC2)c2ccccc21` (centres unmarked) registered a concentration for a half-maximal effect (EC50) of less than 0.1 µM.

As for `CNC(=O)CC1(O)C(=O)N(C2CCN(C3Cc4cccc5ccc(OC)c3c45)CC2)c2ccccc21` (centres unmarked), the EC50 was less than 0.1 µM.

`CNC(=O)C[C@@]1(C)C(=O)N(C2CCN([C@H]3c4cccc5cccc(c45)C3(F)F)CC2)c2ccccc21` registered an EC50 of 0.1 to 1 µM.

Compound `CNC(=O)CC1(OC)C(=O)N(C2CCN(C3Cc4cccc5cccc3c45)CC2)c2ccccc21` (centres unmarked) came in with a concentration for a half-maximal effect (EC50) of less than 0.1 µM.

Take `CNC(=O)C[C@@]1(O)C(=O)N(C2CCN([C@@H]3Cc4cccc5cccc3c45)CC2)c2ccccc21`: the EC50 is less than 0.1 µM.

Regarding `COc1ccc(Cl)c(OC(CCN2CCC(N3C(=O)C(CC(N)=O)c4ccccc43)CC2)C(C)C)c1` (centres unmarked), the EC50 was less than 0.1 µM.

Consider `CNC(=O)C[C@@H]1C(=O)N(C2CCN(C3Cc4cccc5cccc3c45)CC2)c2ccccc21` (some centres unmarked), for which the EC50 is less than 0.1 µM.

As for `CNC(=O)[C@H]1CC12C(=O)N(C1CCN(C3Cc4cccc5cccc3c45)CC1)c1ccccc12` (some centres unmarked), the concentration giving a half-maximal response (EC50) is less than 0.1 µM.

As for `NC(=O)CC1C(=O)N(C2CCN(C3Cc4cccc5cccc3c45)CC2)c2ccccc21` (centres unmarked), the EC50 was less than 0.1 µM.

As for `CNC(=O)CC1(O)C(=O)N(C2CCN(C3(C)CCCc4ccccc43)CC2)c2ccccc21` (centres unmarked), the EC50 is less than 0.1 µM.

For `CNC(=O)C1CC12C(=O)N(C1CCN(C3Cc4cccc5cccc3c45)CC1)c1ccccc12` (centres unmarked), the 50% effective concentration (EC50) was in the range of 0.1 to 1 µM.

On to `CNC(=O)CC1(O)C(=O)N(C2CCN(C3c4cccc5cccc(c45)[C@@H]3C)CC2)c2ccccc21` (some centres unmarked), for which the EC50 was in the range of 0.1 to 1 µM.

Compound `COC(=O)CC1C(=O)N(C2CCN(C3(C)CCCc4ccccc43)CC2)c2ccccc21` (centres unmarked) had a concentration for a half-maximal effect (EC50) of less than 0.1 µM.

Take `CNC(=O)C[C@@]1(C)C(=O)N(C2CCN([C@@]3(C)Cc4cccc5cccc3c45)CC2)c2ccccc21` (single isomer, unassigned): the EC50 was less than 0.1 µM.

`CNC(=O)C[C@]1(O)C(=O)N(C2CCN([C@@H]3Cc4cccc5cccc3c45)CC2)c2ccccc21` registered an EC50 of 0.1 to 1 µM.

`CNC(=O)CC1(C)C(=O)N(C2CCN(CCC(Oc3cc(OC)ccc3Cl)C(C)C)CC2)c2ccccc21` (centres unmarked) gave a half-maximal effective concentration (EC50) of less than 0.1 µM.

Consider `CNC(=O)C(C)C1(O)C(=O)N(C2CCN(C3Cc4cccc5cccc3c45)CC2)c2ccccc21` (centres unmarked), for which the EC50 is less than 0.1 µM.

In turn, `CNC(=O)C[C@]1(C)C(=O)N(C2CCN([C@@H]3Cc4cccc5cccc3c45)CC2)c2ccccc21` had an EC50 of less than 0.1 µM.

For the compound `NC(=O)[C@H]1CC12C(=O)N(C1CCN(C3Cc4cccc5cccc3c45)CC1)c1ccccc12` (some centres unmarked), the half-maximal effective concentration (EC50) lay in the range of 0.1 to 1 µM.

As for `CNC(=O)CC1(C)C(=O)N(C2CCN([C@H]3c4cccc5cccc(c45)[C@@H]3OC)CC2)c2ccccc21` (some centres unmarked), the half-maximal effective concentration (EC50) is less than 0.1 µM.

`NC(=O)C1CC12C(=O)N(C1CCN(C3Cc4cccc5cccc3c45)CC1)c1ccccc12` (centres unmarked) returned a concentration giving a half-maximal response (EC50) of less than 0.1 µM.

Regarding `CNC(=O)CC1(O)C(=O)N(C2CCN(C3Cc4cccc5cccc3c45)CC2)c2ccccc21` (centres unmarked), the concentration giving a half-maximal response (EC50) lay within 0.1 to 1 µM.

`COc1ccc(Cl)c(OC(CCN2CCC(N3C(=O)C(O)(CC(N)=O)c4ccccc43)CC2)C(C)C)c1` (centres unmarked): the EC50 is less than 0.1 µM.

For the compound `CNC(=O)CC1(C)C(=O)N(C2CCN([C@H]3c4cccc5cccc(c45)[C@@H]3O)CC2)c2ccccc21` (some centres unmarked), the half-maximal effective concentration (EC50) was less than 0.1 µM.

The compound `CNC(=O)CC1(O)C(=O)N(C2CCN(C3(C)Cc4cccc5cccc3c45)CC2)c2ccccc21` (centres unmarked) came in with a concentration giving a half-maximal response (EC50) of less than 0.1 µM.

As to `O=C1CC2(CN1)C(=O)N(C1CCN(C3Cc4cccc5cccc3c45)CC1)c1ccccc12` (centres unmarked), the EC50 was less than 0.1 µM.

For the compound `CNC(=O)C[C@]1(C)C(=O)N(C2CCN([C@@]3(C)CCc4ccccc43)CC2)c2ccccc21`, the EC50 is less than 0.1 µM.

`CN1C(=O)NCC12C(=O)N(C1CCN(C3Cc4cccc5cccc3c45)CC1)c1ccccc12` (centres unmarked): the EC50 is less than 0.1 µM.

Consider `CNC(=O)CC1(C)C(=O)N(C2CCN(C3(C)Cc4cccc5cccc3c45)CC2)c2ccccc21` (centres unmarked), for which the EC50 was less than 0.1 µM.

The compound `CC1(CC(N)=O)C(=O)N(C2CCN(C3Cc4cccc5cccc3c45)CC2)c2ccccc21` (centres unmarked) gave an EC50 of less than 0.1 µM.

In turn, `CNC(=O)C[C@]1(C)C(=O)N(C2CCN([C@H]3c4cccc5cccc(c45)C3(F)F)CC2)c2ccccc21` returned a 50% effective concentration (EC50) of less than 0.1 µM.

The compound `CNC(=O)C[C@]1(C)C(=O)N(C2CCN([C@@]3(C)CCCc4ccccc43)CC2)c2ccccc21` registered a concentration for a half-maximal effect (EC50) of less than 0.1 µM.

As to `CNC(=O)C(C)C1(F)C(=O)N(C2CCN(C3Cc4cccc5cccc3c45)CC2)c2ccccc21` (centres unmarked), the EC50 is less than 0.1 µM.

Compound `CNC(=O)C[C@H]1C(=O)N(C2CCN(C3Cc4cccc5cccc3c45)CC2)c2ccccc21` (some centres unmarked) returned an EC50 of less than 0.1 µM.

In turn, `COCCC1(C)C(=O)N(C2CCN([C@H]3c4cccc5cccc(c45)C3O)CC2)c2ccccc21` (some centres unmarked) had an EC50 of less than 0.1 µM.

As to `CNC(=O)C[C@@]1(C)C(=O)N(C2CCN([C@@]3(C)CCc4ccccc43)CC2)c2ccccc21`, the EC50 is less than 0.1 µM.

The compound `CNC(=O)C[C@]1(C)C(=O)N(C2CCN([C@@]3(C)Cc4cccc5cccc3c45)CC2)c2ccccc21` (single isomer, unassigned) came in with an EC50 of less than 0.1 µM.
